Data published in paper PMC137065 (Journal of Biology, 2002).

System: Hh signaling
Test: luciferase-based reporter assay of Hh signaling in C3H10T1/2 cells
Format: cell-based
Details: cells activated by Hh-Ag 1.2 (200 nM)

CC1=C2C[C@H]3[C@@H](CC=C4C[C@@H](O)CC[C@@]43C)[C@@H]2CC[C@]12O[C@@H]1C[C@H](C)CN[C@H]1[C@H]2C [cyclopamine]
effect on pathway activation by the agonist: inhibitory
